According to PubChem BioAssay AID602163 (The Scripps Research Institute Molecular Screening Center, 2012):
The list shows a part of the results, in another mix than the full data. The source made the active and inactive calls. Cut-off read from the data, not from the text of the source: active = activation above about 7.5%; inactive = the rest.

Tested on: Methionine sulfoxide reductase A (Bos taurus)
Experiment: bovine MsrA enzyme activators, primary screen, biochemical, absorbance, HTS (AID 602163);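 note: 0% = vehicle and 100% = reference activator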
Conditions: purified bovine MsrA, absorbance read-out; at 10.6 µM; active compounds read high

Row | Compound | activation
1 | COc1ccc(OP(C)(=O)Nc2ccc(Br)cc2)cc1 (centres undefined) | inactive: -1.46%
2 | CCN(CC)CC(O)COC(=O)C(O)(c1ccccc1)C1CCCCC1 (centres undefined) | inactive: -1.41%
3 | CCOC(=O)c1ccc(NP(C)(=O)Oc2ccc(Cl)cc2)cc1 (centres undefined) | inactive: -1.61%
4 | CP(=O)(OC12CC3CC(CC(C3)C1)C2)OC12CC3CC(CC(C3)C1)C2 | inactive: -1%
5 | CP(=O)(Nc1ccccc1Br)Oc1ccccc1 (centres undefined) | inactive: -3.08%
6 | COc1ccccc1OP(C)(=O)Nc1ccccc1 (centres undefined) | inactive: -4.29%
7 | CP(=S)(Nn1cnnc1)Oc1ccccc1 (centres undefined) | inactive: -11.4%
8 | CP(=O)(Nc1ccccn1)Oc1ccc(Cl)cc1 (centres undefined) | inactive: -6.26%
9 | O=[N+]([O-])c1cc([N+](=O)[O-])c(O)c([N+](=O)[O-])c1.c1ccc(Oc2ccncc2)cc1 | inactive: -1.97%
10 | CCOC(=O)c1ccc(NP(C)(=O)Oc2ccc(OC)cc2)cc1 (centres undefined) | inactive: 1.06%
11 | CCOP(C)(=S)SCC(=O)NC(C)C(=O)O (centres undefined) | inactive: -4%
12 | Cc1cc(C)cc(OP(C)(=O)Nc2ccc(SC(F)(F)F)cc2)c1 (centres undefined) | inactive: -8.82%
13 | CCc1ccc(OP(C)(=O)N2CCN(c3ccc([N+](=O)[O-])cc3)CC2)cc1 (centres undefined) | inactive: 0.09%
14 | CP(=O)(NC(=O)Nc1ccccc1)Oc1ccccc1 (centres undefined) | inactive: -10.4%
15 | CP(=O)(Oc1ccccc1)OC(c1ccccc1)C(F)(F)F (centres undefined) | inactive: -1.73%
16 | CP(=O)(Nc1ccc(SC(F)(F)F)cc1)Oc1ccc(Cl)cc1 (centres undefined) | inactive: -0.83%
17 | Cc1cccc(C)c1OP(C)(=O)Nc1ccc(SC(F)(F)F)cc1 (centres undefined) | inactive: 0%
18 | Cc1ccc(Nc2c([N+](=O)[O-])cc([N+](=O)[O-])cc2[N+](=O)[O-])cc1 | inactive: 1.76%
19 | COc1ccccc1-c1ccccn1.O=[N+]([O-])c1cc([N+](=O)[O-])c(O)c([N+](=O)[O-])c1 | inactive: -7.38%
20 | CCN(CC)CCCOC(=O)C(O)(c1ccccc1)c1ccccc1 | inactive: -7.61%
21 | Cc1cc(C)cc(OP(C)(N)=O)c1 (centres undefined) | inactive: -1.48%
22 | COc1ccc(OP(C)(=O)Nc2cccc(F)c2)cc1 (centres undefined) | inactive: 0.1%
23 | COc1ccccc1OP(C)(=O)Nc1cc(Cl)ccc1C (centres undefined) | inactive: -3.18%
24 | Cc1ccc(NP(C)(=O)Oc2ccccc2)c(C)c1 (centres undefined) | inactive: -3.59%
25 | COc1ccccc1OP(C)(=O)Nc1ccc(C)cc1 (centres undefined) | inactive: -7.19%

Row | Compound | activation
26 | CCOC(=O)c1ccc(NP(C)(=O)Oc2ccccc2)cc1 (centres undefined) | inactive: -4.74%
27 | O=[N+]([O-])c1ccc2c(c1)C=Nc1ccccc1O2 | inactive: -13%
28 | Cc1cccc(C)c1OP(C)(N)=O (centres undefined) | inactive: -6.34%
29 | CC(C)(C)c1ccc(OP(C)(=O)Nc2ccc(SC(F)(F)F)cc2)cc1 (centres undefined) | inactive: -0.22%
30 | O=[N+]([O-])c1cc([N+](=O)[O-])c(Nc2cccnc2)c([N+](=O)[O-])c1 | inactive: 1.02%
31 | CC1=NCCc2c1[nH]c1ccccc21.O=[N+]([O-])c1cc([N+](=O)[O-])c(O)c([N+](=O)[O-])c1 | inactive: -3.73%
32 | O=C(O)c1cccc(Nc2c([N+](=O)[O-])cc([N+](=O)[O-])cc2[N+](=O)[O-])c1 | inactive: -2.92%
33 | Cc1ccc(C)c(NP(C)(=O)Oc2ccccc2)c1 (centres undefined) | inactive: -10.9%
34 | CP(=O)(Nc1cccc(Br)c1)Oc1ccccc1 (centres undefined) | inactive: -1.59%
35 | Cc1cc(C)cc(OP(C)(=O)Nc2ccccn2)c1 (centres undefined) | inactive: -8.78%
36 | CCOC(=O)c1ccc(NP(C)(=O)Oc2cc(C)cc(C)c2)cc1 (centres undefined) | inactive: -1.74%
37 | Cc1cc(C)cc(OP(C)(=O)Nc2ccc(C)cc2C)c1 (centres undefined) | inactive: 2.25%
38 | COc1ccccc1OP(C)(=O)Nc1cccc(Br)c1 (centres undefined) | inactive: -1.09%
39 | Cc1nc2ccc3ccccc3c2s1.O=[N+]([O-])c1cc([N+](=O)[O-])c(O)c([N+](=O)[O-])c1 | inactive: -4.24%
40 | O=[N+]([O-])c1cc([N+](=O)[O-])c(-c2cnn(-c3ccccc3)c2)c([N+](=O)[O-])c1 | active: 8.6%
41 | CN(Cc1cccnc1)C(=O)COc1ccc(Cl)c(Cl)c1.O=[N+]([O-])c1cc([N+](=O)[O-])c(O)c([N+](=O)[O-])c1 | inactive: -17.7%
42 | O=[N+]([O-])c1cc([N+](=O)[O-])c(-n2nnc3ccccc32)c([N+](=O)[O-])c1 | inactive: -7.67%
43 | COc1ccc(-c2ccccn2)cc1.O=[N+]([O-])c1cc([N+](=O)[O-])c(O)c([N+](=O)[O-])c1 | inactive: -6.23%
44 | CP(=O)(Nc1ccc(SC(F)(F)F)cc1)Oc1ccccc1 (centres undefined) | inactive: -3.32%
45 | CCCOc1ccc(NP(C)(=O)Oc2ccc(Cl)cc2)cc1 (centres undefined) | inactive: -1.79%
46 | CN1CCCCC1COC(=O)C1(O)c2ccccc2CCc2ccccc21 (centres undefined) | inactive: -12.9%
47 | COc1ccccc1OP(C)(=O)Nc1c(C)cccc1C (centres undefined) | inactive: 0.86%
48 | CCOC(=O)C(CC)C1=NC(C)(C)Cc2ccccc21.O=[N+]([O-])c1cc([N+](=O)[O-])c(O)c([N+](=O)[O-])c1 (centres undefined) | inactive: -2.29%
49 | O=[N+]([O-])c1cc([N+](=O)[O-])c(Nc2nnnn2CCO)c([N+](=O)[O-])c1 | inactive: 2.12%
